Test results published in PMC4523931, “Modulation of Aβ42 in vivo by γ-secretase modulator in primates and humans” (Alzheimer's Research & Therapy, 2015).

Assay: in vivo
Conditions: female, cynomolgus monkey, CSF and plasma, po, 100 mg/kg, 100 mg/kg oral

Measured: Kp

CC(C)Cc1ccc(C(C)C(=O)O)cc1 (stereo not drawn) [ibuprofen]
~0.01: CSF:plasma ratio, monkey, from AUC 0 to 8 h | Cmax total in CSF as share of Cmax total in plasma, monkey | brain penetration estimated from the CSF to plasma ratio, monkeys
